Literature values as cited in US7972859B2, “Authentication of ingestible products using saccharides as markers” (Authentix, Inc., priority 2006, dated 2011).

Target: Maltose binding protein (Escherichia coli, UniProt P0AEX9)
Conditions: T-line comparison; for maltose 'saturated at a KD of'; cited from earlier work

In the case of amylose, the Kd is listed as greater than 100 µM.
